## scFv variants of Ab-91 (heavy chain) against a SARS-CoV-2 spike peptide

From the AlphaSeq antibody data of Engelhart et al. 2022 (doi:10.1038/s41597-022-01779-4), copy in the FLAb collection.

Binding partner: SARS-CoV-2 spike HR2 peptide, sequence PDVDLGDISGINAS.

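The starting antibody came from a phage panning campaign against this peptide. AAYL51 was designed without a model: most single CDR substitutions and a random sample of double and triple ones. Affinity was read by AlphaSeq, a pooled yeast mating assay with surface-displayed partners. Binding brings cells together so that they mate, and sequencing counts the barcode pairs among the diploids. A regression on co-assayed BCL2-family reference pairs converts the normalised counts of each replicate to an apparent Kd. Each pool was mated in three replicate cultures.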

Each scFv is VL, the linker GGGGSGGGGSGGGGS, VH, as in the parent Ab-91, and differs from it in the CDRs of the heavy chain only.
VL: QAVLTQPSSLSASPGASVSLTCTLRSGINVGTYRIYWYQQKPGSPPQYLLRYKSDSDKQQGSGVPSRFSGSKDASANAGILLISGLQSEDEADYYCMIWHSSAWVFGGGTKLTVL
VH: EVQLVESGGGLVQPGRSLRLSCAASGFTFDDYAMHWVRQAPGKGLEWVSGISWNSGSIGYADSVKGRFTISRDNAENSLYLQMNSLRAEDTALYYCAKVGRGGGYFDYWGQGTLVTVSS

Variants are written as CDR1, CDR2 and CDR3 of the heavy chain (limits as in the source). Parent: GFTFDDYAMH, GISWNSGSIGYADSVK, VGRGGGYFDY.
All variants listed here change A33 of the VH, counted from its first residue.
Scale: log10 of Kd in nM, estimated from mating counts; low values are strong binders.
Replicates are averaged; those with no signal do not enter the mean.
Where no diploid with the target was found in any replicate, the entry reads "nd": below detection, most likely a poor binder, though not proof of it.
In this assay the parent's reference entry averaged 1.86; its copy inside this library read 0.88.

Variant GFTFDDYLMH | GISWNSGSIGYADSTK | VGRGGGMFDY gave nd (0 of 3 replicates; controls 0 of 9). Variant GFTDDSYKMH | GISWNSGSIGYADSVK | VGRGGGYFDY gave 4.31 (2 of 3 replicates; controls 2 of 9). For GFTFDDYTMF | GISWNSGSIGYADSVK | SGRGGGYFDY, the assay gave nd (0 of 3 replicates; controls 0 of 9). Variant GFTFDDYDMH | GISWNSGSIGYADSVY | VMRGGGYFDY showed 4.44 (1 of 3 replicates; controls 0 of 9). Variant GFTFDDYWMH | GISWNSWSIGYADSVK | VGRGGGHFDY showed 5.28 (3 of 3 replicates; controls 4 of 9). With GFQFDDYKMH | GISWNSGSIGYADSVK | VGRGGGYFNY the result was 4.95 (2 of 3 replicates; controls 3 of 9). With GFTFDDYIMH | GISWNSGSIGYEDSVK | VGRGGGYFHY the result was 4.96 (1 of 3 replicates; controls 0 of 9).

Variant GFTFDDYVMH | GISWNSGSIGCADSVK | VGRGGGYFYY showed 4.22 (2 of 3 replicates; controls 2 of 9). Variant GFTMDDYNMH | GISQNSGSIGYADSVK | VGRGGGYFDY gave 4.40 (1 of 3 replicates; controls 5 of 9). Variant GFTFDDYTMH | GISWNSGSIGYADSVK | VGFGGGYFDR gave 4.77 (2 of 3 replicates; controls 4 of 9). With GFTFDDYYMY | GISWFSGSIGYADSVK | VGRGGGYFDY the result was nd (0 of 3 replicates; controls 2 of 9). For GFTFDDYYMH | GISWNSGSIGYADSDK | VGRGRGYFDY, the assay gave 5.36 (3 of 3 replicates; controls 6 of 9). Variant GFTYDDYFMH | GFSWNSGSIGYADSVK | VGRGGGYFDY showed nd (0 of 3 replicates; controls 2 of 9). For GFNFDDYMMH | GISWNSGSIGYADSVK | VGRGGPYFDY, the assay gave 4.65 (2 of 3 replicates; controls 7 of 9).

Variant GFTFDNYFMH | GISWNSGSAGYADSVK | VGRGGGYFDY gave 4.75 (1 of 3 replicates; controls 0 of 9). Variant GFTFDDYGMH | GISWNSGSIGYADSVK | VTRAGGYFDY gave 2.11 (3 of 3 replicates; controls 5 of 9). Variant GFTFDDYGML | GISWNSMSIGYADSVK | VGRGGGYFDY showed 5.05 (1 of 3 replicates; controls 0 of 9). With GFTFDDYWMH | GASWNSGSIGYADSVK | VGRGGQYFDY the result was 5.56 (1 of 3 replicates; controls 2 of 9). Variant GFTFDDYNMH | GISCNSGSIGYADSVK | VGRGGGYFDY gave 4.81 (2 of 3 replicates; controls 5 of 9). Variant GFTFDDYNMH | GISGNSGSIGYADSVK | VGRAGGYFDY gave 4.55 (1 of 3 replicates; controls 2 of 9). For GGEFDDYVMH | GISWNSGSIGYADSVK | VGRGGGYFDY, the assay gave nd (0 of 3 replicates; controls 1 of 9).

With GETFDDYWMH | GISWNSMSIGYADSVK | VGRGGGYFDY the result was nd (0 of 3 replicates; controls 3 of 9). With GFTFDDYVMH | GISWNSGSIGYADSVK | VGLGGHYFDY the result was nd (0 of 3 replicates; controls 0 of 9). Variant GFTFDDYLMH | GISWNSGSMGYADSVK | VGRGGGYFDY gave nd (0 of 3 replicates; controls 2 of 9). Variant GFTFDTYTMH | GISWNSGSIGYADSVK | VGRGGGYSDY gave nd (0 of 3 replicates; controls 0 of 9). Variant GFTFDDYWMH | GQSWNSGSIGYADSVK | TGRGGGYFDY showed nd (0 of 3 replicates; controls 2 of 9). With GFTFDDYVMH | GISPNSGSIGYADSVR | VGRGGGYFDY the result was 3.84 (1 of 3 replicates; controls 2 of 9). For GFTFDDYLMH | GISWNSGSCGYADSVK | VGRGGGYFDA, the assay gave 2.59 (3 of 3 replicates; controls 1 of 9).

Variant EFTFDDYNMH | GISWNSGSIGYADSVK | VGRGGGYFDY showed 4.19 (1 of 3 replicates; controls 2 of 9). Variant GFTFDDYFMH | GISWNSISIGYADSVK | VGRGGGYFDY gave nd (0 of 3 replicates; controls 0 of 9). Variant GFTFDDYGMH | GIHWNSGSIGYADSVI | VGRGGGYFDY gave nd (0 of 3 replicates; controls 0 of 9). For GFTFDDYVMH | GISWNSGSIGRADSVK | VGRGGGYFMY, the assay gave nd (0 of 3 replicates; controls 0 of 9).

The closing 3 entries, repeated:

The variant GFTFDDYFMH | GISWNSISIGYADSVK | VGRGGGYFDY gave nd (0 of 3 replicates; controls 0 of 9).
The variant GFTFDDYGMH | GIHWNSGSIGYADSVI | VGRGGGYFDY gave nd (0 of 3 replicates; controls 0 of 9).
The variant GFTFDDYVMH | GISWNSGSIGRADSVK | VGRGGGYFMY gave nd (0 of 3 replicates; controls 0 of 9).

Background: pairings of library AAYL51 with three empty control strains gave a value in 21% of cases (median 4.54, 5th percentile 3.26). Values in that range, when seen in few replicates, are hard to tell from nonspecific mating. Also given: how often the same scFv was detected with the empty control strains.